Experiments:
[1] = molecular target: mutant integrin CD11bE320A/CD18 (Homo sapiens, UniProt P11215, E336A); experiment: Adhesion of K562 E320A cells to immobilized Fg
Experimental: K562 cells (ATCC) stably transfected with wild-type integrin CD11b/CD18 (K562 CD11b/CD18) have been described previously. Mutant CD11bE320A has been described previously. K562 cells stably transfected with mutant integrin CD11bE320A/CD18 (K562 E320A) were generated according to literature protocols. All cell lines were maintained in Iscove's Modified Dulbecco's Medium (IMDM) supplemented with 10% heat-inactivated fetal bovine serum, 50 IU/ml penicillin and streptomycin and 0.5 mg/ml G418.
Cell adhesion assays with immobilized ligands were performed as previously described. Assays with all different K562 cell lines (K562, K562 CD11b/CD18 and K562 E320A) were performed in an identical fashion. Briefly, 384-well Highbind microtiter plates were coated with a 30 μL solution of ligand in Phosphate Buffered Saline, pH 7.4 containing 1 mM each of Ca^2+ and Mg^2+ ions (PBS^++) overnight at 4° C. Ligand Fg was coated at a concentration of […] and iC3b at […]. Heterodimer specific mAb IB4 (ascites) was coated at a 1:100 dilution. […] Cells remaining adherent were fixed using formaldehyde and were quantitated using imaging microscopy, as previously described. […]

Fischer 344 rats = experiment: Balloon induced arterial injury in rats
Excerpt: All surgeries were under isoflurane anaesthesia (Baxter, Ill., USA). Balloon injury in the right iliac artery was inflicted with a 2F Fogarty catheter (Baxter Corp., Irvine, Calif., USA) adapted to a custom angiographic kit (Boston Scientific, Scimed). An aortotomy in the abdominal aorta was made to insert a 2F Fogarty embolectomy catheter to the level of the right iliac artery. The balloon was inflated to 1.5-1.6 atmospheres and retracted to the arteriotomy site three times. The aortic excision was repaired with 8.0 sutures. The abdominal cavity was closed by planes using interrupted suture pattern. Arterial specimens were collected 3-30 days after injury and fixed in 4% formalin-PBS (Sigma-Aldrich, St. Louis, Mo.) for 5 min and analyzed by histology and immunostaining
Elastica van Gieson staining was used for histochemical analyses to evaluate neointima formation. Morphometric analyses was performed in a blinded fashion using NIH ImageJ. Immunostaining with anti-rat CD68 (1:50, AbD Serotec) for the detection of macrophages in the tissue.
Leukocyte recruitment precedes neointimal thickening and restenosis following percutaneous transluminal coronary angioplasty (PTCA). Denudation of the endothelial cell lining at the site of mechanical vascular injury leads to the deposition of fibrin and platelets, where selective binding between the platelet cell surface receptor GP Ibα and the integrin CD11b/CD18 expressed on the surface of leukocytes mediates the recruitment of leukocytes. Indeed, in the experimental models of mechanical vascular injury, antibody-mediated CD11b/CD18 blockade or its absence (CD11b^−/−) decreases intimal thickening after angioplasty or stent implantation. To investigate the effects of pharmacologically activating CD11b/CD18 in vivo on this injury, we tested our agonists in an arterial balloon injury model in rats. We administered leukadherins LA1, LA3 or vehicle (DMSO) to Fisher male rats 30 min prior to injury and continued injections every other day for three weeks. […]

SMILES	binding of K562 E320A to Fg [1]	neointima to media ratio (Fischer 344 rats; rat arteries 21 days after balloon injury, vehicle 0.23±0.01)	number of medial macrophages (CD68) (Fischer 344 rats; rat arteries three days post-injury, vehicle 42.2±6.7)	effect on neointimal thickening (Fischer 344 rats; rat balloon injury, result in words)
CCOC(=O)CN1C(=O)SC(=Cc2ccc(-c3ccc(Cl)cc3Cl)o2)C1=O	selectively increased	0.14±0.01	6.9±1.3	–
O=C(O)c1ccc(-c2ccc(C=C3SC(=O)N(c4ccccc4)C3=O)o2)cc1	selectively increased	–	–	no effect

Reference: US9023876B2, “Compounds and methods for regulating integrins” (Adhaere Pharmaceuticals, Inc., priority 2010, dated 2015)
